Tests used:
[1] = molecular target: Kappa-type opioid receptor (Homo sapiens, UniProt P41145); assay: DRUGMATRIX: Opiate kappa (OP2, KOP) radioligand binding (ligand: [3H] Diprenorphine); conditions: hek293
Mu-type opioid receptor = Mu-type opioid receptor (Homo sapiens, UniProt P35372); assay: DRUGMATRIX: Opiate mu (OP3, MOP) radioligand binding (ligand: [3H] Diprenorphine); conditions: cho-k1

Sequences of proteins named here, by UniProt entry; tags and fusion partners are left off. A change or cut given only in a name is not applied to a line headed by its entry.
UniProt P41145: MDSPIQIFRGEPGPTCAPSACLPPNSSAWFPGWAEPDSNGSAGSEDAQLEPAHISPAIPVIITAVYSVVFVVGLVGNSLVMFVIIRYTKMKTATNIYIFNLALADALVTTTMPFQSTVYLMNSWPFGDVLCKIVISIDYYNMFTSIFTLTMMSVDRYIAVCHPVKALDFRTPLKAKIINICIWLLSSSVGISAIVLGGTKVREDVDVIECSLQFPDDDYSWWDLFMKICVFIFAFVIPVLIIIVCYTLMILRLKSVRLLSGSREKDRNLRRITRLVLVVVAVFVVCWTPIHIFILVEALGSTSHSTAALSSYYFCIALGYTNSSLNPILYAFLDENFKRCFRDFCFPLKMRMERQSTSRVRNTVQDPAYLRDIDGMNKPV
UniProt P35372, whole entry, looked up: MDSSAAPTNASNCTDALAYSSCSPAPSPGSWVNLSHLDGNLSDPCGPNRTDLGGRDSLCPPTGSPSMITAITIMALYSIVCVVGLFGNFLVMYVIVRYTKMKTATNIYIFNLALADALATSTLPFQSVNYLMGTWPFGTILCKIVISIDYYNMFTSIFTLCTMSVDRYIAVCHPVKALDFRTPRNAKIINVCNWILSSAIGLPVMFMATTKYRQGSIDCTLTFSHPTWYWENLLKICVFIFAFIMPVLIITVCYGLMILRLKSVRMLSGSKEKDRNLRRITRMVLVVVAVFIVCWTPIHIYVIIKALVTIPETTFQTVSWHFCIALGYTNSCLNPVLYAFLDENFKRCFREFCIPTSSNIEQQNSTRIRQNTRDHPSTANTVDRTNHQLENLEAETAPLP

Cc1ccc(/N=C/N(C)/C=N/c2ccc(C)cc2C)c(C)c1
Not Active: IC50 [1] | Ki [1] | IC50 (Mu-type opioid receptor) | Ki (Mu-type opioid receptor)

CC(C)C[C@H]1C(=O)N2CCC[C@H]2[C@]2(O)O[C@](NC(=O)[C@@H]3C=C4c5cccc6[nH]c(Br)c(c56)C[C@H]4N(C)C3)(C(C)C)C(=O)N12
Not Active: IC50 [1] | Ki [1] | IC50 (Mu-type opioid receptor) | Ki (Mu-type opioid receptor)

CC1=C2C(=CO[C@H](C)[C@H]2C)C(O)=C(C(=O)O)C1=O
Not Active: IC50 [1] | Ki [1] | IC50 (Mu-type opioid receptor) | Ki (Mu-type opioid receptor)

CC[C@@H](CO)NC(=O)[C@@H]1C=C2c3cccc4[nH]cc(c34)C[C@H]2N(C)C1
Not Active: IC50 [1] | Ki [1] | IC50 (Mu-type opioid receptor) | Ki (Mu-type opioid receptor)

CN1C[C@H](C(=O)N[C@]2(C)O[C@@]3(O)[C@@H]4CCCN4C(=O)[C@H](Cc4ccccc4)N3C2=O)C[C@@H]2c3cccc4[nH]cc(c34)C[C@H]21
Not Active: IC50 [1] | Ki [1]

Clc1cc2c(cc1Cl)Oc1cc(Cl)c(Cl)cc1O2
Not Active: IC50 [1] | Ki [1] | IC50 (Mu-type opioid receptor) | Ki (Mu-type opioid receptor)

COc1ccc(C[C@H]2NC[C@H](O)[C@H]2OC(C)=O)cc1
Not Active: IC50 [1] | Ki [1] | IC50 (Mu-type opioid receptor) | Ki (Mu-type opioid receptor)

C=C1[C@@H]2CCC3[C@@](CC[C@@H]4[C@H](C(=O)O)C[C@@H](O[C@@H]5O[C@H](CO)[C@@H](OS(=O)(=O)[O-])[C@H](OS(=O)(=O)[O-])[C@H]5OC(=O)CC(C)C)C[C@@]34C)(C2)[C@@H]1O.[K+].[K+] (stereo partly drawn) [ATRACTYLOSIDE]
Not Active: IC50 [1] | Ki [1] | IC50 (Mu-type opioid receptor) | Ki (Mu-type opioid receptor)

CC(=O)CC(c1ccccc1)c1c(O)c2ccccc2oc1=O (stereo not drawn) [WARFARIN]
Not Active: IC50 [1] | Ki [1] | IC50 (Mu-type opioid receptor) | Ki (Mu-type opioid receptor)

O=C/C=C/c1ccccc1
Not Active: IC50 [1] | Ki [1] | IC50 (Mu-type opioid receptor) | Ki (Mu-type opioid receptor)

COP(=O)(OC)OC=C(Cl)Cl [DICHLORVOS]
Not Active: IC50 [1] | Ki [1] | IC50 (Mu-type opioid receptor) | Ki (Mu-type opioid receptor)

C[N+](C)(C)C[C@H](O)CC(=O)[O-]
Not Active: IC50 [1] | Ki [1]

NN
Not Active: IC50 [1] | Ki [1] | IC50 (Mu-type opioid receptor) | Ki (Mu-type opioid receptor)

Reference: ChEMBL document CHEMBL1909046, “DrugMatrix in vitro pharmacology data”
